Assays:
[1] = system: SKOV-3 human ovarian adenocarcinoma xenograft; test: SK-OV-3 human ovarian xenograft antitumor efficacy; assay type: in vivo, CB17 SCID mice; details: SK-OV-3 xenograft
[2] = system: OVCAR-5 human ovarian adenocarcinoma xenograft; test: OVCAR-5 human ovarian xenograft antitumor efficacy; assay type: in vivo, CB17 SCID mice; details: OVCAR-5 xenograft
OVCAR-3 cancer cell line = test: MTT assay, cytostatic/cytotoxic effects, OVCAR-3
OVCAR-5 cancer cell line = test: MTT assay, cytostatic/cytotoxic effects, OVCAR-5
SK-OV-3 cancer cell line = test: MTT assay, cytostatic/cytotoxic effects, SK-OV-3
[3] = system: UWB1.289 cancer cell line; test: MTT assay, cytostatic/cytotoxic effects, UWB1.289
[4] = system: UWB1.289+BRCA1 cancer cell line; test: MTT assay, cytostatic/cytotoxic effects, UWB1.289+BRCA1
[5] = time to tumor volume growth >20%

O=C(O)CCOc1ccc(N(CCCl)CCCl)cc1
Median Overall Survival (OS) ([1]; from tumor inoculation (D0)): 49 days | Progression Free Survival (PFS) [1, 5]: 0 days | Median Overall Survival (OS) ([2]; from tumor inoculation (D0)): 57 days | MST (mean survival time) ([2]; single i.p. dose on d-1): 59.7 ± 3.3 days | T/C% (mean survival time of treated versus saline controls) ([2]; single i.p. dose on d-1): 118.3% | Progression Free Survival (PFS) [2, 5]: 0 days | TGI (Total Growth Inhibition) (OVCAR-3 cancer cell line; OVCAR-3, 48 h treatment): 92 ± 7.5 μΜ | GI50 (OVCAR-3 cancer cell line; read-out: GI50 (50% Growth Inhibition), OVCAR-3, 48 h treatment): 56 µM | IC50 (OVCAR-3 cancer cell line; read-out: IC50 (cytotoxic effect), OVCAR-3, 48 h treatment): > 100 µM | TGI (Total Growth Inhibition) (OVCAR-5 cancer cell line; OVCAR-5, 48 h treatment): 87 ± 7.8 μΜ | GI50 (OVCAR-5 cancer cell line; read-out: GI50 (50% Growth Inhibition), OVCAR-5, 48 h treatment): 52 µM | IC50 (OVCAR-5 cancer cell line; read-out: IC50 (cytotoxic effect), OVCAR-5, 48 h treatment): > 100 µM | TGI (Total Growth Inhibition) (SK-OV-3 cancer cell line; SK-OV-3, 48 h treatment): >100 μΜ | GI50 (SK-OV-3 cancer cell line; read-out: GI50 (50% Growth Inhibition), SK-OV-3, 48 h treatment): 50 µM | IC50 (SK-OV-3 cancer cell line; read-out: IC50 (cytotoxic effect), SK-OV-3, 48 h treatment): > 100 µM | TGI (Total Growth Inhibition) ([3]; UWB1.289, 48 h treatment): 86 ± 7.4 μΜ | GI50 ([3]; read-out: GI50 (50% Growth Inhibition), UWB1.289, 48 h treatment): 22 µM | IC50 ([3]; read-out: IC50 (cytotoxic effect), UWB1.289, 48 h treatment): > 100 µM | TGI (Total Growth Inhibition) ([4]; UWB1.289+BRCA1, 48 h treatment): >100 μΜ | GI50 ([4]; read-out: GI50 (50% Growth Inhibition), UWB1.289+BRCA1, 48 h treatment): > 100 µM | IC50 ([4]; read-out: IC50 (cytotoxic effect), UWB1.289+BRCA1, 48 h treatment): > 100 µM
